{"source": "paper PMC7448123", "about": "“Ru(II) Complexes Bearing O, O-Chelated Ligands Induced Apoptosis in A549 Cells through the Mitochondrial Apoptotic Pathway” (Bioinorganic Chemistry and Applications, 2020)", "key": {"A549 cells [1]": {"tested_on": "A549 cells", "test": "Cellular uptake and subcellular distribution by ICP-MS", "assay_type": "cell-based, human", "details": "20 μM, 6 h", "experimental": "A549 cells were seeded into six-well plates (5.0 × 10^5 cells per well) and grown overnight at 37°C in a 5% CO2 incubator. The cells were incubated with the different concentrations (5, 10, 15, and 20 μM) of Ru(II) complexes for different time intervals (1, 3, and 6 h). After the incubation, the cells were harvested and washed twice with PBS. Cell Mitochondria Isolation Kit was used to extract the nuclear, mitochondrial, and cytoplasmic fractions of the A549 cells. The pellets were digested with 3 mL concentrated nitric acid and 1 mL perhydrol for 24 h and then diluted to 5 mL with ultrapure water. Finally, ICP-MS was used to determine the amount of Ru(II) complexes uptaken by A549 cells.\nIt is generally acknowledged that the cellular uptake feature of transition metal-based compounds is an essential factor for their biological activities. As repeatedly reported by previous ruthenium complex-related studies, the more cellular uptake results in higher cytotoxicity. The cellular ruthenium concentration was determined by using ICP-MS after 1, 3, and 6 h of exposure to 5, 10, 15, and 20 μM Ru(II) complexes (Figure 2), respectively, and the results were reported as ng of ruthenium per 10^6 cell number. […] The subcellular distribution of Ru-1 in A549 cells was further studied."}, "[2]": {"test": "Lipophilicity, octanol/water partition (ICP-MS)", "assay_type": "physicochemical", "details": "octanol/aqueous NaCl, 48 h shaking, 25°C", "experimental": "Log Po/w is the partition coefficient between octanol and water. Briefly, a suitable amount of stock solution of the Ru(II) complex in aqueous NaCl was added to an equal volume of octanol, and the mixture was shaken for 48 h at 200 rpm at 25°C to allow partitioning. The aqueous layer was separated from the octanol layer after the sample was centrifuged at 3000 rpm for 10 min. The Ru(II) content in the aqueous layer was measured by ICP-MS. Finally, Log Po/w values were calculated according to the equation of Log Po/w = Log ([Ru]o/[Ru]w)."}, "A549 cells [3]": {"tested_on": "A549 cells", "test": "Mitochondrial membrane potential, JC-1 flow cytometry", "assay_type": "cell-based, human", "details": "12 h", "experimental": "The mitochondrial membrane potential (MMP) of A549 cells was analyzed by using an inverted fluorescence microscope and flow cytometry. […] For microscope observation, the collected cells were incubated in complete medium containing JC-1 (10 μg/mL) for 30 min and washed with PBS twice and then imaged by an inverted fluorescence microscope (Nikon, Japan). For flow cytometry analysis, the cells were trypsinized and washed twice with PBS and then incubated in 500 μL PBS containing JC-1 (10 μg/mL) for 30 min at 37°C. The cells were analyzed by flow cytometer immediately. The intracellular ROS level of A549 cells was detected after DCFH-DA stain, as illustrated in our new publication."}, "[4]": {"tested_on": "A549 (human lung carcinoma)", "test": "MTT cytotoxicity assay, A549", "assay_type": "cell-based", "details": "48 h"}}}
{"smiles": "O=C1[O][Ru][O]c2ccccc21.c1ccc(-c2ccnc3c2ccc2c(-c4ccccc4)ccnc23)cc1.c1ccc(-c2ccnc3c2ccc2c(-c4ccccc4)ccnc23)cc1", "note": "[Ru-1, [Ru(dip)2(SA)]]", "values": [{"measurement": "cell entry relative to Ru-2", "setting": "A549 cells [1]", "value": 1.8, "unit": "fold"}, {"measurement": "log Po/w", "setting": "[2]", "value": "1.4 ± 0.1"}, {"measurement": "percentage of green fluorescence (JC-1, MMP decline)", "setting": "A549 cells [3]; 5 μM", "value": 28.2, "unit": "%"}, {"measurement": "percentage of green fluorescence (JC-1, MMP decline)", "setting": "A549 cells [3]; 10 μM", "value": 38.4, "unit": "%"}, {"measurement": "percentage of green fluorescence (JC-1, MMP decline)", "setting": "A549 cells [3]; 20 μM", "value": 70.5, "unit": "%"}, {"measurement": "SI (selectivity index) = IC50 (BEAS-2B)/IC50 (A549)", "setting": "[4]", "value": 4.9}]}
